Experimental data from US20090252703A1, “Use of alcohol co-solvents to improve pegylation reaction yields” (priority 2006, published 2009).

Assay: solubility of CGRP peptides in aqueous conjugation buffer
Type: physicochemical
Details: aqueous conjugation buffers used for coupling vehicle to the peptide
Source text: Co-solvent mediated conjugation of vehicle to CGRP peptide antagonists.

Compound: CC(=O)N[C@@H](Cc1c[nH]c2ccccc12)C(=O)N[C@H](C(=O)N[C@H](C(=O)N[C@@H](Cc1cnc[nH]1)C(=O)N[C@@H](CCCNC(N)=O)C(=O)N[C@@H](CC(C)C)C(=O)N[C@@H](C)C(=O)NCC(=O)N[C@@H](CC(C)C)C(=O)N[C@@H](CC(C)C)C(=O)N[C@@H](CO)C(=O)N[C@@H](CCCNC(N)=O)C(=O)N[C@@H](CO)C(=O)NCC(=O)NCC(=O)N[C@H](C(=O)N[C@H](C(=O)N[C@@H](CCCN=C(N)N)C(=O)N[C@@H](CCCCN)C(=O)N[C@@H](CC(N)=O)C(=O)N[C@@H](Cc1ccccc1)C(=O)N[C@H](C(=O)N1CCC[C@H]1C(=O)N[C@H](C(=O)N[C@@H](CC(=O)O)C(=O)N[C@H](C(=O)NCC(=O)N1CCC[C@H]1C(=O)N[C@@H](Cc1ccccc1)C(=O)N[C@@H](C)C(=O)N[C@@H](Cc1ccccc1)C(N)=O)C(C)C)[C@@H](C)O)C(C)C)C(C)C)C(C)C)[C@@H](C)O)C(C)C [SEQ ID NO:31, Ac-WVTH(Cit)LAGLLS(Cit)SGGVVRKNFVPTDVGPFAF-NH2]
- solubility in aqueous buffer medium (in words): relatively insoluble
